# Measurements published in US20120330199A1.
# Only a part of the results on these compounds is given; other tests are left out.
# Test system: porcine model of cardiac arrest
# Assay: SNPeCPR with stutter CPR (PC) or therapeutic hypothermia (TH) after 15 minutes of untreated VF
# Details: both groups (PC and TH)
# Procedure: The ITD prevented respiratory gases from entering the lungs during the decompression phase of CPR. […] The abdomen in this example was compressed with 40-50 lbs of pressure, applied continuously with a bend human arm, using the forearm and a force gauge. Further, 2 mg of sodium nitroprusside (SNP) were given IV at minute 1 and 1 mg at minute 3 of CPR. All animals received in addition 0.5 mg of epinephrine at minute 5, 30 seconds before the first defibrillation attempt. Six animals (PC group), were treated with 40 seconds of SNPeCPR and the first dose of SNP were followed by 20-second pauses (cessation of perfusion) and 20 second of SNPeCPR for a total of 4 cycles for up to 3 minutes. After that animals had uninterrupted SNPeCPR until defibrillation at minute 5. The other 8 animals (TH group) had SNPeCPR for a total of 5 minutes without interruptions. The TH group received 12 hours of TH (core temp=33° C.). The PC group received no TH. Cerebral performance was scored at 24 hours by a veterinarian blinded to the treatment group.
substance,measurement,value
sodium nitroprusside,24-hour survival,100%
